According to US10758531B2, “Regimens and compositions for treating HIV infections and AIDS” (ViiV Healthcare Company, priority 2016, dated 2020):

Experiment: Drug-drug interactions: effect on concentration on co-administration (Table 1)
[1] = concomitant Clarithromycin, Erythromycin, Telithromycin
[2] = concomitant H2-receptor antagonists: Famotidine, Cimetidine, Nizatidine, Ranitidine
[3] = concomitant antacids (aluminum, magnesium hydroxide, calcium carbonate), cation-containing antacids or laxatives, sucralfate, buffered medications
[4] = concomitant protease inhibitor Tipranavir/ritonavir
[5] = concomitant use of rifabutin and a composition of the invention

Effect on Concentration [1] | Effect on Concentration [2] | Effect on Concentration [3] | Effect on Concentration [4] | Effect on Concentration [5] | Effect on Concentration (concomitant NNRTIs: Delavirdine, Efavirenz, Etravirine, Nevirapine) | Effect on Concentration (concomitant oral calcium and iron supplements (non-antacid)) | SMILES
↑Rilpivirine | ↓Rilpivirine | ↓Rilpivirine | ↑Rilpivirine | ↓Rilpivirine |  |  | Cc1cc(/C=C/C#N)cc(C)c1Nc1ccnc(Nc2ccc(C#N)cc2)n1 [Rilpivirine, 4-[[4-[[4-[(E)-2-cyanoethenyl]-2,6-dimethylphenyl]amino]-2-pyrimidinyl]amino]benzonitrile]
↔Bictegravir | ↔Bictegravir | ↓Bictegravir | ↓Bictegravir | ↔Bictegravir | ↓Bictegravir | ↓Bictegravir | O=C(NCc1c(F)cc(F)cc1F)c1cn2c(c(O)c1=O)C(=O)N1[C@H]3CC[C@H](C3)O[C@@H]1C2 [Bictegravir, (2R,5S,13aR)-8-hidroxi-7,9-dioxo-N-[(2,4,6-trifluorofenil)metil]-2,3,4,5,7,9,13,13a-octahidro-2,5-metanopirido [1′,2′:4,5]pirazino[2,1-b][1,3]oxazepina-10-carboxamida]
